According to PubChem BioAssay AID624465 (National Center for Advancing Translational Sciences (NCATS), 2012):
The entries are a selection whose mix differs from that of the whole data set. Some results for these compounds are left out of this collection, so the calls shown say nothing about other tests. Calls of active or inactive are those of the source. Rule as the data show it: active = activation above about 40%; inconclusive = between about 15% and that limit; inactive = weaker than that.

Amino acid sequences for entries named in this document (tags omitted).
UniProt P14416, whole entry: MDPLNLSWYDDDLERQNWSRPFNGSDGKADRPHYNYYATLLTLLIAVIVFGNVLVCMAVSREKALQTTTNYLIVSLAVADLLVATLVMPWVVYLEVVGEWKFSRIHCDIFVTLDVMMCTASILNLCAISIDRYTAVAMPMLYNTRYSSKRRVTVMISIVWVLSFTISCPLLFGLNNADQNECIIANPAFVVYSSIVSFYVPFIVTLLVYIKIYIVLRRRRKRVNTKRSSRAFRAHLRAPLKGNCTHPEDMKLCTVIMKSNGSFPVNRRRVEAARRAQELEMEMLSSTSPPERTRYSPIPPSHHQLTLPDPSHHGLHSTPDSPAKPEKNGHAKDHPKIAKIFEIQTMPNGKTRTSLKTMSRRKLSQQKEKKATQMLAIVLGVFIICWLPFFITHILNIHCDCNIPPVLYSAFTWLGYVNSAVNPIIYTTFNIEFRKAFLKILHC

What follows are molecules tested against D(2) dopamine receptor (Homo sapiens) (UniProt P14416) (assay: Beta-Arrestin HTS for Positive Allosteric Modulators of the Human D2 Dopamine Receptor: Agonists). Conditions: DiscoveRx PathHunter D2 beta-arrestin, luminescence, 90 min; active compounds read high; 100% = 57 uM dopamine signal.
Text: There is great interest in identifying small molecule ligands for G-protein coupled receptors (GPCRs) as nearly 50% of all FDA-approved drugs target these important receptor proteins. […] Amongst the dopamine receptors (DARs), the D2 is arguably one of the most validated drug targets in neurology and psychiatry. For instance, all receptor-based antiparkinsonian drugs primarily work via stimulating the D2 DAR, whereas all FDA-approved antipsychotic agents are antagonists of this receptor. The D2 DAR is also therapeutically targeted in other disorders such as restless legs syndrome, tardive dyskinesia, Tourette's syndrome, and hyperprolactinemia.
To this end, a miniaturized qHTS screen was developed to be screened against the Molecular Libraries Small Molecule Repository (MLSMR). This assay seeks to identify agonists against the D2 DAR.
NIH Molecular Libraries Probe Production Network [MLPCN]
NIH Chemical Genomics Center [NCGC]
PI Name: David Sibley, National Institutes of Neurological Disorders and Stroke
DiscoveRx D2 cells were thawed from frozen stock and seeded at 2,100 cells/ 3 uL/well media (DiscoveRx Plating Reagent 2) with MultiDrop Combi dispenser (Thermo Scientific, Logan, UT) onto white tissue culture treated 1536-well Aurora plates (Brooks Automation, Chelmsford, MA) and allowed to attach overnight at 37 deg C, 5% CO2. Next, 23 nL/well of compound solutions in DMSO were added with a pintool transfer (Kalypsis, San Diego, CA). As the positive control, 1 uL/well dopamine (EC100, 57 uM final concentration) diluted in buffer (HBSS + 10 mM HEPES + SMB + 0.1% Tween-20) was dispensed to 1 column of each plate. The rest of the plate was dispensed with buffer only, 1 uL/well as well. The cells were stimulated by compounds or dopamine control for 90 minutes at 37 deg C, 5% CO2, after which 1.5 ul/well of DiscoveRx detection reagent was added with BioRAPTR FRD dispenser. The detection reagent was prepared by mixing of Galacton Star Substrate, Emerald II solution and PathHunter buffer (supplied by the assay kit) together at 1:5:19 proportion accordingly just prior to dispensing. The plates were incubated at ambient temperature for 1 hour and then the luminescent signal was read on ViewLux plate reader (PerkinElmer, Waltham, MA).
CN(C)C1(CNC(=O)c2ccc(Br)cc2)CCCCC1 was tested, and the activation was inactive: -4.2%. For COc1cc(C(=O)NCC2(N(C)C)CCCCC2)c([N+](=O)[O-])cc1OC, the activation was inactive: -4.32%. In the case of COc1cccc(C(=O)NCC2(N3CCCCC3)CCCCC2)c1, the activation is reported as inactive: 0.0873%. In the case of COc1ccc(Cl)cc1C(=O)NCC1(N(C)C)CCCCC1, the activation is reported as inactive: -0.957%. For O=C(NCC1(N2CCCCC2)CCCCC1)c1cccc(Cl)c1, the activation was inactive: -0.598%. For O=C(OC1CN2CCC1CC2)C(CO)(c1ccccc1)c1ccccc1 (stereo unspecified), the activation was inactive: -1.81%. For COc1ccc(Br)c(C(=O)NCC2(N3CCCCC3)CCCCC2)c1, the activation was inactive: -3.45%. For C=C(C)C#CC(O)(C(=O)OC1CCN(C)CC1)c1ccccc1 (stereo unspecified), the activation was inactive: -4.04%. In the case of CN(C)c1cccc(C(=O)NCC2(N(C)C)CCCCC2)c1, the activation is reported as inactive: -2.71%. CC(C)Oc1ccc(C(=O)NCC2(N(C)C)CCCCC2)cc1 was tested, and the activation was inactive: 0.378%. O=C(OCCN1CCCC1)C(O)(c1ccccc1)c1ccccc1 was tested, and the activation was inactive: -1.87%. O=C(NCC1(N2CCCCC2)CCCCC1)c1cc([N+](=O)[O-])ccc1Cl was tested, and the activation was inactive: -1.01%. In the case of CN1[C@@H]2CC[C@H]1CC(OC(=O)C(O)(c1ccccc1)c1ccccc1)C2 (stereo partly specified), the activation is reported as inactive: -1.92%. With CC(C)N1C(=O)CC2(CCN(CCOC(=O)C(O)(c3ccccc3)c3ccccc3)CC2)C1=O the activation was inactive: -0.995%. CCN(CC)CC(C)C(C)OC(=O)C(O)(c1ccccc1)c1ccccc1 (stereo unspecified) was tested, and the activation was inactive: -3.48%. COc1cc(SC)ccc1C(=O)NCC1(N(C)C)CCCCC1 was tested, and the activation was inactive: 2.59%. For Cc1ccc(C(=O)NCC2(N3CCCCC3)CCCCC2)cc1, the activation was inactive: -7.19%. Cc1ccccc1C(=O)NCC1(N2CCCCC2)CCCCC1 was tested, and the activation was inactive: -5.39%. With CN(C)c1ccc(C(=O)NCC2(N(C)C)CCCCC2)cc1 the activation was inactive: 0.169%. For CN(C)C1CCCC1OC(=O)C(O)(c1ccccc1)c1ccccc1 (stereo unspecified), the activation was inactive: -4.84%. C=CCN1CCN(CCOC(=O)C(O)(c2ccccc2)c2ccccc2)CC1 was tested, and the activation was inactive: 4.3%. In the case of O=C(NCC1(N2CCCCC2)CCCCC1)c1cc(F)c(F)cc1Cl, the activation is reported as inactive: -2.18%. CCN1CCCC(OC(=O)C2(O)c3ccccc3C=Cc3ccccc32)C1 (stereo unspecified) was tested, and the activation was inactive: -1.94%. For Cc1cc(C(=O)NCC2(N3CCCCC3)CCCCC2)ccc1[N+](=O)[O-], the activation was inactive: 3.11%. In the case of O=C(NCC1(N2CCCCC2)CCCCC1)c1cccc(Br)c1, the activation is reported as inactive: 0.162%. COc1ccc(C(=O)NCC2(N(C)C)CCCCC2)cc1 was tested, and the activation was inactive: 0.101%.
